Results: paper doi:10.1101/2024.05.25.595884 (bioRxiv, 2024)

Target: full-length human HER2 with enhanced green fluorescent protein (eGFP) at the C-terminal end (Homo sapiens, UniProt P04626)
Experiment: SPID

Kd: 2.4 nM
B1: Trastuzumab scFab variant Y52R (Fab, V domains shown)
VH: [… about 120 residues with changes …]
VL: DIQMTQSPSSLSASVGDRVTITCRASQDVNTAVAWYQQKPGKAPKLLIYSASFLYSGVPSRFSGSRSGTDFTLTISSLQPEDFATYYCQQHYTTPPTFGQGTKVEIK
